Test results from patent EP0655439A2, “5,6-Bicyclic glycoprotein IIb IIIa antagonists useful in inhibition of platelet aggregation” (ELI LILLY AND COMPANY, priority 1993, dated 1995).

Chains of the proteins cited; added tags and fusions are not shown. Residues count along the entry.
UniProt P05106, 27-788 limits assumed: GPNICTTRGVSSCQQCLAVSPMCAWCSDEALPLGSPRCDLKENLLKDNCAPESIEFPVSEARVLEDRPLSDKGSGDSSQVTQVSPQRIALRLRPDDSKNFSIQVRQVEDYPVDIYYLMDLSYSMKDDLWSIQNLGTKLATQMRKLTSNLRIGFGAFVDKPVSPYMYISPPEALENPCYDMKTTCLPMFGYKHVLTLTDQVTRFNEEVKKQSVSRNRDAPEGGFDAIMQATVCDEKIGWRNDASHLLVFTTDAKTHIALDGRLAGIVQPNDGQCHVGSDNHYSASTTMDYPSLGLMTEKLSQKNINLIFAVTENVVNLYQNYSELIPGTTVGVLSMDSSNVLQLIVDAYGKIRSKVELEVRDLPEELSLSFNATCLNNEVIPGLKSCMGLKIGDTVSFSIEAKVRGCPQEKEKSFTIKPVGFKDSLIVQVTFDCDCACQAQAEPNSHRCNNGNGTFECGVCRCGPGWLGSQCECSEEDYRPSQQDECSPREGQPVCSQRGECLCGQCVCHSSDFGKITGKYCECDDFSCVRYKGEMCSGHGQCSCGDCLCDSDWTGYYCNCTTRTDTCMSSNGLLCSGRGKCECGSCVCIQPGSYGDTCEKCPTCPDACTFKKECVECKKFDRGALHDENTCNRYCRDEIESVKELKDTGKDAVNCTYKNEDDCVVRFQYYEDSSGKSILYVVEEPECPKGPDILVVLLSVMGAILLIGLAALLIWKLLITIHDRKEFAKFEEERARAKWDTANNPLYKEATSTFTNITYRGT
UniProt P08514, 32-887 limits assumed: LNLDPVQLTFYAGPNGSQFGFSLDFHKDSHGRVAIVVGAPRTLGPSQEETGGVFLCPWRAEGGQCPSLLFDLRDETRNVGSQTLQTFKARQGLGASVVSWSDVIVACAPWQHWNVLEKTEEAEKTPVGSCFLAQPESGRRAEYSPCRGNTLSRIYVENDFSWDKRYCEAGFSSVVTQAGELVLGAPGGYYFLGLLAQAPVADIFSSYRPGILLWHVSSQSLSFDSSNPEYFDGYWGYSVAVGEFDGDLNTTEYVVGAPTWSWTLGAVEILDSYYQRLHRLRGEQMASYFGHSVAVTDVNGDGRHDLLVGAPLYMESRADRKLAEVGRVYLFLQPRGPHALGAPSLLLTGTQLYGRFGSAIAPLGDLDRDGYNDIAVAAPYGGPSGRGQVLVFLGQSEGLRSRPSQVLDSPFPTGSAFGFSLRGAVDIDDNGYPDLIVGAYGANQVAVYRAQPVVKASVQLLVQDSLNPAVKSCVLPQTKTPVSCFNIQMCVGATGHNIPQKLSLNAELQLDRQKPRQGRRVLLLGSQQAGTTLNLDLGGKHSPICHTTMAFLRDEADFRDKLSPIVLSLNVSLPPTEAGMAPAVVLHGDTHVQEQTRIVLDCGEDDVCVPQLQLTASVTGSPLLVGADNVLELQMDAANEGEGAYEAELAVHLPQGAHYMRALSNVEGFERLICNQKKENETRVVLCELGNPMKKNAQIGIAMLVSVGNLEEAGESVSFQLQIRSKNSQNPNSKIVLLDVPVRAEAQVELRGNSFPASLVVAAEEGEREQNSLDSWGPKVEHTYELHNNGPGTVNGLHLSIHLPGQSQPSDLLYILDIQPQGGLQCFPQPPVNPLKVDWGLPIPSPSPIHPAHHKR
UniProt P08514, 891-1039 partner limits assumed: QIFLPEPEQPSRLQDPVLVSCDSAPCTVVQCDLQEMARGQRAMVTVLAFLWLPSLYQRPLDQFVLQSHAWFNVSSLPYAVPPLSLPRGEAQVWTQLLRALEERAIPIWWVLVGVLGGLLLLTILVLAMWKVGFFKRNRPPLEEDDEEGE

What was measured:
[1] = system: human platelet-rich plasma; assay: Platelet aggregation assay (PRP), Aggregation-Human/PRP/ADP; format: cell-based; conditions: read-out: PRP IC50, 1 minute at 37°C before aggregating agent, most often ADP 5 µM, tested form: TFA
Protocol: In addition to the ELISA GPllb-Illa assay previously described the Aggregation-Human/PRP/ADP Assay is useful for evaluating therapeutic compounds.
Platelet-rich plasma was prepared from healthy human volunteers for use in determining inhibition of platelet aggregation by the compounds. Blood was collected via a 21 gauge butterfly cannula, using a two-syringe technique into 1/10 volume of 10% trisodium citrate.
Platelet-rich plasma was prepared at room temperature by centrifugation of the citrated whole blood at 100 x g for 15 minutes. The platelet rich plasma contained approximately 200-400,000 platelets/µl.
Platelet-poor plasma was prepared by centrifugation of citrated whole blood at 12,000 x g for 2 minutes.
Platelet aggregation was assayed in a 4-channel platelet aggregation profiler (PAP-4, Biodata, Hatboro, PA) according to the manufacturers directions. Inhibition of platelet aggregation was studied by adding varying amounts of test compounds to stirred human platelet-rich plasma. Specifically, the human platelet-rich plasma was incubated with test compounds for 1 minute at 37°C prior to the addition of a variety of aggregating agents most often ADP 5 µM, but also 1 µg/ml collagen, 1 µM U46619 or 1 µM platelet activating factor.

GPIIb-IIIa = GPIIb-IIIa (Homo sapiens, UniProt P05106+P08514); assay: GPIIb-IIIa ELISA assay (inhibition of fibrinogen binding to immobilized receptor); conditions: read-out: ELISA IC50; purified platelet GPIIb-IIIa coated on plates; biotinylated fibrinogen 10 nM; 3 hours at 25 °C; tested form: TFA

Structure (SMILES): CCCC(Cc1ccc(CNC(=O)c2cc3cc(C(=N)N)ccc3[nH]2)cc1)C(=O)O (centres unmarked)
- IC50 [1]: > 100 µM
- IC50 (GPIIb-IIIa): 68 µM
